Like-named read-outs stand apart in the source and are kept apart here.
Target: recombinant human IDE (Homo sapiens, UniProt P14735)
Experiment: IDE activity assay, degradation of fluorogenic peptide substrate FRET1
Type: biochemical
Settings: read-out: ki, nM (FRET1), FRET1 5 μM, n = 3
[1] = Table 3, P2' and terminal group

The chains behind the UniProt entries cited, without tags or fusion partners.
UniProt P14735, whole entry: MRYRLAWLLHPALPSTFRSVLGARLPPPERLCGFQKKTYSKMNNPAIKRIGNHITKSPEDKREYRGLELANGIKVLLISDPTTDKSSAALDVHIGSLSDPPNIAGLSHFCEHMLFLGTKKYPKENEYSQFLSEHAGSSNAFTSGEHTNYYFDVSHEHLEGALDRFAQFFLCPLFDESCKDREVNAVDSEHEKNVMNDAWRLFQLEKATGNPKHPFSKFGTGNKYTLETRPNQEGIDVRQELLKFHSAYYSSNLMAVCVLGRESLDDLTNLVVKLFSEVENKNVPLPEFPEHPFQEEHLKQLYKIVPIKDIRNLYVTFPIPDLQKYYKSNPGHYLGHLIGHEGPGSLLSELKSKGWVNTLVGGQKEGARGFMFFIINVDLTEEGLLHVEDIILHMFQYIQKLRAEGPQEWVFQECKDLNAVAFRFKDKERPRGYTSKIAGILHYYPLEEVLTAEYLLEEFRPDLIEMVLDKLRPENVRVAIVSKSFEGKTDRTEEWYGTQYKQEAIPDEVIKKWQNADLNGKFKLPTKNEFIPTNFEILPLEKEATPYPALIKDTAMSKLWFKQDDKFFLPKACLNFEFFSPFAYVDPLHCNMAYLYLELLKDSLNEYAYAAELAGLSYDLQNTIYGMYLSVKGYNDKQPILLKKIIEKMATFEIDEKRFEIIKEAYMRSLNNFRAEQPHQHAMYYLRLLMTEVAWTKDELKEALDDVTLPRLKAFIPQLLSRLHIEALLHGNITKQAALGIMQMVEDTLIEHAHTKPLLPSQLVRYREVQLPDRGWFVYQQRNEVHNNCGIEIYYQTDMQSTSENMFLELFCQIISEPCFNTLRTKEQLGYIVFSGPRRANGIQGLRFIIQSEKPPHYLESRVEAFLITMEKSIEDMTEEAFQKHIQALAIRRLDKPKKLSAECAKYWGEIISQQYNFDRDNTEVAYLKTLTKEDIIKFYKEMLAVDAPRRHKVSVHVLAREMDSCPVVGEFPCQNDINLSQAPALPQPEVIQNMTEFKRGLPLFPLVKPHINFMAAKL

| Ki (Table 2, truncation) [nM] | Ki [1] [nM] | Substance |
| --- | --- | --- |
| 18000 ± 1100 |  | (2R,3S)-N^1-((S)-1-((S)-1-Amino-3-(1H-indol-2-yl)-1-oxopropan-2-ylamino)-5-guanidino-1-oxopentan-2-yl)-N^4,3-dihydroxy-2-(naphthalen-2-ylmethyl)succinamide [inhibitor 10a] |
|  | > 33000 | (2R,3S)-N^1-((S)-1-Amino-5-guanidino-1-oxopentan-2-yl)-N^4,3-dihydroxy-2-(naphthalen-2-ylmethyl)succinamide [inhibitor 12a] |
| 498 ± 10 |  | (2S,3R)-N^1-((S)-1-((S)-1-amino-3-(1H-indol-2-yl)-1-oxopropan-2-ylamino)-5-guanidino-1-oxopentan-2-yl)-N^4,3-dihydroxy-2-(naphthalen-2-ylmethyl)succinamide [inhibitor 10b] |
|  | > 33000 | (2S,3R)-N^1-((S)-1-amino-5-guanidino-1-oxopentan-2-yl)-N^4,3-dihydroxy-2-(naphthalen-2-ylmethyl)succinamide [inhibitor 12b] |
